Columns and labels:
[1] = molecular target: Melan A peptide on HLA-A*02:01 (human); assay: multimer staining
[2] = molecular target: Melan A peptide on HLA-A*02:01 (human); assay: structure
[3] = molecular target: Melan A peptide on HLA-A*02:01 (human); assay: stated without data

Row | binding result [1] | Binder | other results
1 | recognises | MEL11 (TCR) alpha TRAV12-2*01 TRAJ30 CDR3: CAVNYEDDKIIF beta TRBV9 TRBJ2-7 CDR3: CASSVGVQGSWEQYF | 
2 | recognises | MEL25 (TCR) alpha TRAV8-6 TRAJ47 CDR3: CAVSDNGNKLVF beta TRBV12-4 TRBJ2-7 CDR3: CASSWAGPVEQYF | 

The remaining lines, values behind:

Row | Binder | binding result [1] | other results
3 | CLL9 (TCR) alpha TRAV12-2*01 TRAJ9 CDR3: CAVGAGGFKTIF beta TRBV2*02 TRBJ2-7 CDR3: CASSESPLSGNEQYF | recognises | 
4 | MEL8 (TCR, V domains shown) Valpha: QKEVEQNSGPLSVPEGAIASLNCTYSDRGSQSFFWYRQYSGKSPELIMSIYSNGDKEDGRFTAQLNKASQYVSLLIRDSQPSDSATYLCAVQKLVFGTGTRLLVSP Vbeta: NAGVTQTPKFQVLKTGQSMTLQCAQDMNHEYMSWYRQDPGMGLRLIHYSVGAGITDQGEVPNGYNVSRSTTEDFPLRLLSAAPSQTSVYFCASSYSFTEATYEQYFGPGTRLTVT |  | binding result [2]: recognises
5 | MEL56 (TCR) alpha TRAV12-3 TRAJ35 CDR3: CAMSVGFGNVLHC beta TRBV27 TRBJ2-7 CDR3: CASSLGLAGNEQYF |  | binding result [3]: recognises

Reference: US20260053920A1 (published 2026)
